## Binding of CDR-mutated scFvs to a peptide of the spike HR2 region

Target peptide (SARS-CoV-2 spike, HR2 region): PDVDLGDISGINAS

Parent scFv Ab-14: VH joined to VL by three GGGGS repeats. Changes lie in the heavy chain CDRs alone.
VH: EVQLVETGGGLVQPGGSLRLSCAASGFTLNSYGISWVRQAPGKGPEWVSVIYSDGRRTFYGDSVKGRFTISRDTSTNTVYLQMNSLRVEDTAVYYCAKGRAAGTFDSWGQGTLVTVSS
VL: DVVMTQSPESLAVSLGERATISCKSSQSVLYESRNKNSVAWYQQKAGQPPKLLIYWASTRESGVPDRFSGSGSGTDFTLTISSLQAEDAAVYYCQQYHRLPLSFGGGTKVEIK

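The starting antibody came from a phage panning campaign against this peptide. Designed CDR sequences, proposed from the first random library and measured here. Several design methods are mixed in this list. AlphaSeq pools MATa yeast showing the antibodies with MATalpha yeast showing the peptide. After mating in shaken culture at 30 °C for 16 h, diploids were selected and their barcode pairs sequenced. Read counts were normalised to the haploid input and turned into Kd by a linear fit to BCL2-family pairs of known affinity, for each replicate. Mating was done six times.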

The parent's heavy chain CDRs are GFTLNSYGIS, VIYSDGRRTFYGDSVK, GRAAGTFDS; each variant's own CDRs replace them letter for letter.
The Kd shown is the geometric mean over detected replicates; a lower Kd is a better binder.
"nd" means that the variant was in the library but no mating with the target was seen in any replicate; the authors take this as a sign of poor binding, and no number exists.
Order: sorted from the lowest average up, undetected variants last.
Values of this round are not directly comparable with the first-round values of the same sequences.
Nonspecific signal, from three strains lacking the peptide, appeared in 1% of pairings of all heavy chain designs, centred on 120 nM (5% of these signals below 7.0 nM); values are not corrected for it.
The authors averaged sequences with at least three values out of six and counted those with two or fewer as poor binders.
Of ten entries with the parent sequence, four were seen in most replicates (averages 2.2 nM to 240 nM), three in one and three in none, so single entries are noisy.

230 pM (6 of 6 replicates): GFDLNEYGIS / VIYADGKRTFYSDSVK / GNNGGTFDS.
270 pM (6 of 6 replicates): GFDLNEYGIS / VIYADGRRTAYADSVK / GNQAGTFDS.
340 pM (6 of 6 replicates): GFDLNEYGIS / VIYADGVRTAYADNVK / GNVAGTFDV.
340 pM (6 of 6 replicates): GFNLNEYGIS / VIYADGRRTFYADSVK / GETAGTFDI.
340 pM (6 of 6 replicates): GFDLNEYGIS / VIYADGRRTFYSDSVK / GTVAGTFDI.
530 pM (6 of 6 replicates): GFDLNEYGIS / VIYADGVRTAYADSVK / GKNAGTFDV.
700 pM (6 of 6 replicates): GFDLNEYGIS / VIYADGMRTAYADNVK / GEVAGTFDQ.
800 pM (6 of 6 replicates): GFSLNEYGIS / VIYSDGRRTFYHDSVK / GRQAGTFDS.
810 pM (6 of 6 replicates): GFDLNEYGIS / VIYADGRRTQYIDSVK / GEQAGTFDT.
1.6 nM (6 of 6 replicates): GFSLNSYGIS / VIYSDGRRTFYSDSVK / GWQAGTFDS.
1.7 nM (3 of 6 replicates): GFTLNSYGIS / VIYSDGRRTFYGDSVR / GTAAGTFDS.
2.3 nM (6 of 6 replicates): GFDLESYGIS / VIYADGQRTAYADSVK / GNVAGTFDS.
2.6 nM (6 of 6 replicates): GFDLNAYGIS / VIYSDGRRTFYGDSVK / GQAAGTFDS.
2.9 nM (6 of 6 replicates): GFELNEYGIS / VIYSDGRRTFYMDSVK / GRTAGTFDS.
3.1 nM (6 of 6 replicates): GFDLNSYGIS / VIYSDGKRTFYGDHVK / GRTAGTFDS.
3.9 nM (6 of 6 replicates): GFDLNSYGIS / VIYSDGRRTFYADSVK / GWAAGTFDS.
9.1 nM (6 of 6 replicates): GFKLNSYGIS / VIYSDGRRTFYIDSVK / GNAAGTFDL.
10 nM (6 of 6 replicates): GFDLNEYGIS / VIYADGMRTAYADSVK / GVNAGTFDV.
12 nM (6 of 6 replicates): GFTLNSYGIS / VIYSDGRRTFYIDSVK / GREPGTFDS.
200 nM (4 of 6 replicates): GFTLNSYGIS / VAYSDGRRTFYDDSVK / GQLAGTFDS.
nd (0 of 6 replicates): GFDLAEQGIS / VIYADGMRTAYAQNFK / GYIGGTIMD.
nd (0 of 6 replicates): GFDLNEYGIS / VIYADGQRTFYHDNVK / GQLNVVVNA.
nd (0 of 6 replicates): GFDLNSYGIS / VIYSDGRRTFYGQSVK / GRAAGNFNS.
nd (0 of 6 replicates): GFTLNSFGIS / VIYSDGRRTFYGDSVK / GRAAGTFDS.
nd (0 of 6 replicates): GFWLNSYGIS / VIYSDGRRTFYIDSVK / GRIAGTFDS.
nd (0 of 6 replicates): GFTLNEYGIS / VIYSDGRRTFYGDSVK / GRAAGTFCV.
nd (0 of 6 replicates): GFQLNSYGIS / VIYSDGRRTFYADSVK / GRAAGTKDS.
nd (0 of 6 replicates): GKDLEEYGIS / VIYADGRRTSYIENVK / DGLNDGLFV.
nd (0 of 6 replicates): GNDLSEYGIS / VIYADGIRTNYSQNVK / GTLGDVFTQ.
nd (0 of 6 replicates): GFTLNDYGIS / VIYSDGRRTFYGDSVK / GRAAGTFHK.
nd (0 of 6 replicates): GFTLNSYGIS / VIYSDGYRTFYGDSVK / GRAAGTFDA.
nd (0 of 6 replicates): GNTLNSYGIS / VIYSDGRRTFYGDNVK / GFASGTFDI.

Picked from the list: the 2 lowest averages where every replicate gave a value.

CDR-H1,CDR-H2,CDR-H3,Kd (apparent),replicates with signal
GFDLNEYGIS,VIYADGKRTFYSDSVK,GNNGGTFDS,230 pM,6/6
GFDLNEYGIS,VIYADGRRTAYADSVK,GNQAGTFDS,270 pM,6/6

Values reported by Li et al. 2023, doi:10.1038/s41467-023-39022-2 (FLAb copy).